{"source": "paper PMC5108443", "about": "(Cardiovascular Therapeutics, 2016)", "origin": "cited, not measured here", "settings": "PARADIGM-HF; cited from earlier work", "data": [{"substance": "Sacubitril/valsartan [LCZ696]", "values": [{"measurement": "Incidence of hyperkalemia compared with enalapril", "result": "lower incidence"}]}]}
